System: Staphylococcus aureus
Conditions: NCTC12493

GENTAMICIN
MIC: 0.5 µg/mL

— ChEMBL document CHEMBL4665840, “New antibacterial cadiolide analogues active against antibiotic-resistant strains” (Bioorg Med Chem Lett, 2020)
